Laboratory results from ChEMBL document CHEMBL1129509, “Hypoxia-selective antitumor agents. 12. Nitrobenzyl quaternary salts as bioreductive prodrugs of the alkylating agent mechlorethamine” (1996).

Key:
FME = assay: Hypersensitivity factor is the ratio of IC50 for AA8/IC50 for FME cell line; conditions: Homo sapiens
UV4 = assay: Hypersensitivity factor is the ratio of IC50 for AA8/IC50 for UV4 cell line; conditions: Cricetulus griseus
EMT6 [1] = assay: Hypersensitivity factor is the ratio of IC50 for AA8/IC50 for EMT6 cell line; conditions: Mus musculus
EMT6 [2] = assay: Concentration to reduce EMT cell survival under hypoxic conditions (3h drug exposure) by clonogenic assay; conditions: Mus musculus
EMT6 [3] = assay: Ratio of aerobic C10 to that of hypoxic C10 for EMT cells; conditions: Mus musculus

| SMILES | Hypersensitivity factor (FME) | Hypersensitivity factor (UV4) | Hypersensitivity factor (EMT6 [1]) | C10 (EMT6 [2]) [mM·h] | Ratio (EMT6 [3]) |
| --- | --- | --- | --- | --- | --- |
| C[N+](CCCl)(CCCl)Cc1cccc([N+](=O)[O-])c1 | 72 | 95 | 16 |  |  |
| C[N+](CCCl)(CCCl)Cc1ccccc1[N+](=O)[O-] | 24 | 300 | 40 | 20 | 2500 |
| C[N+](CCCl)(CCCl)Cc1ccc([N+](=O)[O-])cc1 | 22 | 2900 | 121 |  |  |
| Cc1cccc(C[N+](C)(CCCl)CCCl)c1[N+](=O)[O-] | 330 | 730 | 400 | 0.2 | 1 |
| Cc1ccc(C[N+](C)(CCCl)CCCl)c([N+](=O)[O-])c1 | 54 | 470 | 120 | 0.29 | 240 |
